Earlier results, collected in patent publication US20120016021A1, “METHODS OF TREATING FRAGILE X SYNDROME, DOWN'S SYNDROME, AUTISM AND RELATED DISORDERS” (XENOPORT, INC., priority 2010, published 2012).

Test system: autistic children

Cc1nc2n(c(=O)c1CCN1CCC(c3noc4cc(F)ccc34)CC1)CCCC2 [risperidone]
adverse events: weight gain, increased appetite, fatigue, drowsiness, dizziness, and drooling
